Target: Tyrosine-protein kinase BTK (Mus musculus, UniProt P35991)

Chains of the proteins cited; added tags and fusions are not shown. Lines headed by an entry give the natural chain unless they say otherwise; changes in a name come on top.
UniProt P35991: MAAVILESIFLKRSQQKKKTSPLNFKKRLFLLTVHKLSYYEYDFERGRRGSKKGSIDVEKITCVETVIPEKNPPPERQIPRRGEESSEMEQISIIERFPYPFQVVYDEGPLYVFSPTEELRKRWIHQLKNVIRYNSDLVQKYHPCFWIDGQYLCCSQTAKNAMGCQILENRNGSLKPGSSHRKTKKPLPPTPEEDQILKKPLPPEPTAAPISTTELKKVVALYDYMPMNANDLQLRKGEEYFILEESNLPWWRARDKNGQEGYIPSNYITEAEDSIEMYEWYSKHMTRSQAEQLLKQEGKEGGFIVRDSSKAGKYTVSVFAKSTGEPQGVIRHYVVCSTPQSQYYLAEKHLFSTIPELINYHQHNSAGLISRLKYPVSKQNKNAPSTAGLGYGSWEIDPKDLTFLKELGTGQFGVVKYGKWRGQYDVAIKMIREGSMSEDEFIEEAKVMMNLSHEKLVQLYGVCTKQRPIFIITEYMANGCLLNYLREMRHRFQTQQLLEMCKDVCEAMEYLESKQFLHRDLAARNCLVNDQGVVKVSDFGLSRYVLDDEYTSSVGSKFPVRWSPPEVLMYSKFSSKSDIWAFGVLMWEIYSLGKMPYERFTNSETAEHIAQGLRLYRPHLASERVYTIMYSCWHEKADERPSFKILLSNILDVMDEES

Cn1cc(-c2cccc(N3CCc4c(nc5n4CCCC5)C3=O)c2CO)cc(Nc2ccncn2)c1=O
IC50: > 50 µM
